# Reference: patent US8280710B2, “Method for determining thermal stability of collagen or collagen-like peptide” (University of Medicine and Dentistry of New Jersey, priority 2005, dated 2012)
# Details: host-guest peptide, (Gly-Pro-Hyp)8 host; c=1 mg/ml in phosphate-buffered saline, pH 7.0, heating rate 0.1° C./minute
# Method: The propensity measurements for all 20 amino acid residues in the Xaa1 position in a Gly-Xaa1-Hyp context and all 20 amino acid residues in the Xaa2 position in a Gly-Pro-Xaa2 context were determined by measuring thermal stability of host-guest peptides (Persikov, et al. (2000) supra).
# The Tm values of all host-guest peptides were measured under a set of standard conditions, with c=1 mg/ml in phosphate-buffered saline, pH 7.0, and with a heating rate average of 0.1° C./minute (Persikov, et al. (2004) supra).
substance,measurement,value
Gly-Gly-Leu,experimentally observed Tm of Gly-Xaa1-Xaa2 tripeptide unit in a triple helix,25.3 °C
